Source: patent publication US5637318A, “Dermatological agent for assisting the transport of oxygen in the skin” (Lancaster Group AG, priority 1992, dated 1997)

Test system: skin tissue
Conditions: in vivo

Question: Which “residence time in the tissue / release from the tissue” value does the source give for `FC(F)(F)C(F)(F)C(F)(F)C(F)(F)C(F)(F)C(F)(F)F` [F-hexane] here?
Answer: The value was “released correspondingly more rapidly from the tissue”.
